Publication PMC3037833 (Angewandte Chemie (International ed. in English), 2010)

Legend:
[1] = target: N2P1 (NHERF2 PDZ domain 1) (Homo sapiens, UniProt Q15599); assay: Fluorescence polarization; format: binding; conditions: SD
[2] = target: N2P2 (NHERF2 PDZ domain 2) (Homo sapiens, UniProt Q15599); assay: Fluorescence polarization; format: binding; conditions: SD
CALP (CAL PDZ domain) = CALP (CAL PDZ domain) (Homo sapiens, UniProt Q9HD26); assay: Fluorescence polarization; format: binding; conditions: SD
CFTR10 (Homo sapiens) = assay: fluorescence polarization competition

CC(C)C[C@H](NC(=O)[C@H](CCCNC(=N)N)NC(=O)[C@@H](NC(=O)[C@H](CC(=O)O)NC(=O)[C@H](CCC(N)=O)NC(=O)[C@@H](NC(=O)[C@H](CCC(=O)O)NC(=O)[C@H](CCC(=O)O)NC(=O)[C@H](CCC(=O)O)NC(=O)[C@@H](N)[C@@H](C)O)C(C)C)[C@@H](C)O)C(=O)O [CFTR10, reference compound]
Ki [1]: 1.1 ± 0.1 µM | Ki [2]: 0.1 ± 0.02 µM

CC[C@H](C)[C@H](NC(=O)[C@@H](NC(=O)[C@H](CO)NC(=O)[C@@H](NC(=O)[C@@H]1CCCN1C(=O)[C@H](Cc1c[nH]c2ccccc12)NC(=O)[C@H](CCCNC(=N)N)NC(=O)[C@@H](N)CO)[C@@H](C)O)[C@@H](C)CC)C(=O)O [iCAL36_8]
Ki (CALP (CAL PDZ domain)): 20.3 ± 2.6 µM

CAL PDZ (from UniProt Q9HD26)
Ki (CFTR10 (Homo sapiens)): 390 µM
